Assay results from ChEMBL document CHEMBL1138533 (Antimicrob Agents Chemother, 2007).

Assay: Drug concentration in beta lactamase-negative Haemophilus influenzae pharmacokinetic simulation model dosed as amoxicillin-clavulanic acid at simulated human serum concentration of 2000/125 mg, po bid after 3 hrs
Format: ADME, organism-based
Details: in vivo

CC1(C)S[C@@H]2[C@H](NC(=O)[C@H](N)c3ccc(O)cc3)C(=O)N2[C@H]1C(=O)O [AMOXICILLIN]
Drug uptake: 12.5 µg/mL
